# Experimental data published in paper PMC8879737.
# Experiments:
# [1] = target: ChromePure human IgG Fc (human); assay: SPR; Biacore 2000; human IgG Fc and human, rabbit, mouse, guinea pig whole IgG amine coupled to CM5 chips (854, 1348, 1094, 857, 1143 RU); gE monomers and gE/gI heterodimers at 750 μg/mL (Bac gE-1 t411 490 μg/mL) flowed at 30 μL/min in 0.01 M HEPES pH 7.4, 0.15 M NaCl, 0.005% P20; one concentration, RU at the end of association and of dissociation
# [2] = target: ChromePure human IgG Fc (human); assay: as above; remark: listed apart in the source
substance,measurement,setting,value
gE-2 t417/gI-2 t262 (complex),RU post association,[1],41 RU
same,RU post dissociation,[1],0.8 RU
same,RU post association,[2],43 RU and 98 RU

# Several values for one entry are separate records, joined by “and”; a condition that tells them apart may be missing. Identical values can stand only once. Like-named read-outs stand apart in the source and are kept apart here.
